Measured values as given in PubChem BioAssay (Tox21).
“And” between values parts separate entries of the source, which are not always exact repeats. Equal entries are not always repeated. The entries are a selection whose mix differs from that of the whole data set. Records with an inconclusive call do not appear. A call without a number means that no potency is given here. The source made the active and inactive calls. Calls come from the whole dose curve; as a rule, active = well fitted activation curve with a large enough effect in the signal ratio in the repeat runs (not every such curve was filed as active); inconclusive = weak or mixed curves, or effect the other way; inactive = no such curve, though single readings can be large or run the other way; the % refers to the signal ratio.

assay: qHTS assay for small molecule agonists of the antioxidant response element (ARE) signaling pathway (AID 743202); conditions: HepG2 ARE-bla reporter, beta-lactamase FRET, 16 h; series mostly up to 73.3 µM
Description: U.S. Tox21 Program National Center for Advancing Translational Sciences [NCATS] NIH Chemical Genomics Center [NCGC] U.S. Environmental Protection Agency [EPA] National Institutes of Environmental Health Sciences [NIEHS] National Toxicology Program [NTP] U.S. Food and Drug Administration [FDA] Tox21 Assay Overview: Oxidative stress has been implicated in the pathogenesis of a variety of diseases ranging from cancer to neurodegeneration. The antioxidant response element (ARE) signaling pathway plays an important role in the amelioration of oxidative stress. The CellSensor ARE-bla HepG2 cell line (Invitrogen) can be used for analyzing the Nrf2/antioxidant response signaling pathway. Nrf2 (NF-E2-related factor 2) and Nrf1 are transcription factors that bind to AREs and activate these genes. The CellSensor ARE-bla Hep G2 cell line contains a beta-lactamase reporter gene under control of the Antioxidant Response Element (ARE) stably integrated into HepG2 cells. The activation of the report gene under culture conditions can be detected by fluorescence intensity. This cell line has been used to screen the Tox21 10K compound library to identify agonists that induce oxidative stress.
Tox21 Assay Protocol Summary: The ARE-bla cells were dispensed at 2,000 cells/5 ul/well in 1536-well black wall/clear bottom plates using a Multidrop dispenser. After the assay plates were incubated at a 37 C/5% CO2 incubator for 5 hours, 23 nL of compounds dissolved in DMSO, positive controls or DMSO only was transferred to the assay plate by a pin tool. The plates were incubated at 37 C for 16 hours. After 1 uL of LiveBLAzer B/G FRET substrate was added using a Flying Reagent Dispenser, the plates were incubated at room temperature for 2 hours, and fluorescence intensity was measured by an Envision plate reader.
Potency is the fitted concentration of half-maximal effect.

Row | SMILES | Potency
1 | O=[p+]1oc2ccccc2c2ccccc21 (centres undefined) | inactive
2 | CCCCC(CC)CO[P+](=O)OCC(CC)CCCC (centres undefined) | inactive
3 | O=P(Cl)(Cl)c1ccccc1 | inactive
4 | Cc1cc([N+](=O)[O-])cc([N+](=O)[O-])c1O | active: 8.63 µM and active: 4.86 µM
5 | CCOC(=O)Cl | inactive
6 | Cc1cc([N+](=O)[O-])c(O)c([N+](=O)[O-])c1 | active: 9.79 µM
7 | CCOP(=S)(CC)Sc1ccccc1 (centres undefined) | inactive
8 | NC(=O)Nc1ccc([As](=O)(O)O)cc1 | inactive
9 | O=P(Cl)(Oc1ccccc1)Oc1ccccc1 | inactive
10 | COC(=O)Cl | inactive
11 | COP(=S)(Cl)OC | inactive
12 | CCCCO[P+](=O)OCCCC | inactive
13 | O=[P+](Oc1ccccc1)Oc1ccccc1 | inactive
14 | CN(N=O)C(=N)N[N+](=O)[O-] | inactive
15 | CC(C)CCCCCCCOP(OCCCCCCCC(C)C)Oc1ccccc1 | inactive
16 | CN(C(=O)Cc1ccc(Cl)c(Cl)c1)[C@H]1CC[C@@]2(CCCO2)C[C@@H]1N1CCCC1 | inactive
17 | CN(C(=O)Cc1cccc2occc12)[C@H]1CC[C@@]2(CCCO2)C[C@@H]1N1CCCC1 | inactive
18 | CN(C(=O)Cc1ccccc1)[C@H]1CC[C@@]2(CCCO2)C[C@@H]1N1CCCC1 | inactive
19 | CCNC(C)Cc1ccc2c(c1)OCO2 (centres undefined) | inactive
